# Source: ChEMBL document CHEMBL1153136, “Novel benzoylpiperidine-based stearoyl-CoA desaturase-1 inhibitors: Identification of 6-[4-(2-methylbenzoyl)piperidin-1-yl]pyridazine-3-carboxylic acid (2-hydroxy-2-pyridin-3-ylethyl)amide and its plasma triglyceride-lowering effects in Zucker fatty rats” (Bioorg Med Chem Lett, 2010)
# Molecular target: T1, Acyl-CoA desaturase 1 (Mus musculus, UniProt P13516)
# T1 sequence (P13516 whole entry): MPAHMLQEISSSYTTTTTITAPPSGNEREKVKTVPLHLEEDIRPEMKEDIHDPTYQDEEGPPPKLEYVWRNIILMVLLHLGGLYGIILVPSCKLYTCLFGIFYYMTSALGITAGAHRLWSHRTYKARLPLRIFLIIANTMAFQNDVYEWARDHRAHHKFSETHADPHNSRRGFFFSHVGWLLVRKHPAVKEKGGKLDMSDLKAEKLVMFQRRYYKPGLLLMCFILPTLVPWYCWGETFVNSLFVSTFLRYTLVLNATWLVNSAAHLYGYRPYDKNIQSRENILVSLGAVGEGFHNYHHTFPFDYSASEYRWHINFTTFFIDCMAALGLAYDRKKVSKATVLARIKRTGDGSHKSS
# Assay: Inhibition of Scd1 in mouse liver microsomes assessed as conversion of [14C]stearate to [14C]oleate pretreated for 10 mins measured after 60 mins
# Parameters: species or system Microsome
compound,measurement,value
O=C(NCCc1ccccc1)c1ccc(N2CCN(C(=O)c3ccccc3C(F)(F)F)CC2)nn1,IC50,6 nM
